Blank lines part the entries; values can stand above or below the binder they belong to.
Assays:
[1] = biological target: T1, S. pombe H2A-H2B heterodimer (S. pombe, UniProt P04913 1-126; P04909 1-132); experiment: ITC; MicroCal ITC200, 20 °C; 25 mM Tris-HCl pH 8.0, 400 mM NaCl, 2 mM DTT; Sad1 (500 μM) titrated into H2AB (50 μM); settings: both partners purified
T1 construct: histone H2B, S. pombe; histone H2A, S. pombe; also called H2B/H2A heterodimer; source: E. coli Rosetta, co-expressed from a modified pCDF-Duet vector, purified; copies: 1 + 1

The chains behind the UniProt entries cited, without tags or fusion partners. Where a name states a change or a piece, a line headed by the entry shows the natural chain unless it says otherwise. Residues count along the entry.
UniProt P04913, whole entry, chain 1 of 2: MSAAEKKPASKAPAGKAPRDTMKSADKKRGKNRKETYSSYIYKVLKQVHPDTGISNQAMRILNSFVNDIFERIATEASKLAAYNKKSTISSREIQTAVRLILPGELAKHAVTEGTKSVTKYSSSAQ
UniProt P04913, 32-126: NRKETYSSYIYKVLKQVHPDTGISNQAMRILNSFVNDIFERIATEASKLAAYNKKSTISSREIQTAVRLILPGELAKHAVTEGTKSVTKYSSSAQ

[2] = biological target: T2, H2B_(32-126) (the H2B part of H2AB) (S. pombe, UniProt P04913 32-126); experiment: crystal structure; H2AB and Sad1_(110-126) mixed at a molar ratio of 1:2; 0.2 M potassium nitrate, 20% w/v PEG-3350; 2.15 Å; settings: both partners purified
T2 construct: In the crystal it stood on one chain with H2A_(15-108); source: E. coli Rosetta, purified as part of the H2AB fusion

Kd [1]: 7.5 µM
B1: Sad1_(1-169) (domain or fragment, S. pombe, UniProt Q09825 1-169, looked up)
chain: MFTNTPVGGKRERQNGAHPAWSTLGANSAQIHQNTADLASKMHKLRYTKIRSPPTRVSIESITPKQRFPAPNFEQAYHSNIRYEQEESDNEEFENVVKNGHEASTNVFYESDGDDEEFVNEEYENSIDEESDDEGYSLNEDTTATNASFRYPMNQRSTRKSQFYSSKFK
notes: Cleavage is told in general for proteins not needed with their tag; used in ITC, SEC and MST; also called Sad1NTD; source: E. coli Rosetta, purified (glutathione Sepharose 4B, 3C digestion on beads, Superdex); not shown: GST, N-terminal, cleaved

binding result [2]: binds
B2: Sad1_(110-126) (peptide, UniProt Q09825 110-126, looked up)
chain: ESDGDDEEFVNEEYENS
notes: Cleavage of GST is told only in general for all Sad1 fragments not needed with the tag; also called Sad1HBM (in the crystal structure); source: E. coli Rosetta, purified; not shown: GST, N-terminal, cleaved

Source: publication PMC11109203 (Nature Communications, 2024)
